The values below are quoted from earlier work in patent US9631180B2, “Recombinant manganese oxidase” (OREGON HEALTH & SCIENCE UNIVERSITY, priority 2013, dated 2017).

The subject of this data set is B. licheniformis CotA. As to conditions: described in Koschorreck K et al, 2008; cited from earlier work.

As for `CCn1c(=NN=c2sc3cc(S(=O)(=O)O)ccc3n2CC)sc2cc(S(=O)(=O)O)ccc21` [ABTS, 2,2′-azino-bis(3-ethylbenzthiazoline-6-sulphonic acid)], the Km was 124 µM.
